The values below are quoted from earlier work in patent publication US6444645B1, “Crosslink-stabilized indolicidin analogs” (The Regents of the University of California, priority 1998, dated 2002).

Read-outs that look alike come from different tables or passages of the source.

The series concerns fungal infection. To be noted: indolicidin incorporated into liposomes, mice, cited from earlier work.

For the substance “Ile-Leu-Pro-Trp-Lys-Trp-Pro-Trp-Trp-Pro-Trp-Arg-Arg-CONH2 [Indol 1-13]”, the “antifungal activity in vivo” value is “antifungal activity in vivo”. Moreover, the “antifungal activity in vivo” value (listed as native indolicidin) was “fungal infection in mice could be cured”.
